Bioassay records (PubChem)
Sfp inh: Sfp phosphopantetheinyl transferase inhibition | Q9F4F7 | Biochemical Sfp PPTase activity, qHTS | Potency, µM, inactives show max response, negative = inhibition, usual class: inhibitors | actives 3.5% (n = 310,000) | AID 1490; active = well fitted inhibition curve with a large enough effect; inconclusive = small, poorly fitted or top-dose-only effect, or another doubt; inactive = no such curve, though single readings can be large or run the other way;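 also: the enzyme is Sfp with the accession as filed and its product quenches rhodamine fluorescence; potency is read from the fitted curve at half-maximal effect; 0% = enzyme reaction without inhibitor and -100% = no enzyme wells; top concentration of the series not given in the record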
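Compounds were incubated with enzyme (final 15 nM) for 15 min at room temperature before substrate addition started the reaction. Fluorescence at 525 nm excitation, 598 nm emission was recorded immediately and after 30 minutes.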
G9a block: G9a (human) methyltransferase inhibition | Q96KQ7 | Potency, µM (titrated, usually from 102 µM), without a hit: at the top dose activity, negative = inhibition, actives largely listed as inhibitors | G9a H3K9 monomethylation, AlphaScreen, 2 h | hit rate 8.8% among 350,000; note: potency is the fitted concentration of half-maximal effect; % is set by controls: 0 for no effect and ±100 for the full control effect; nearly all actives have a fitted effect of over 75% in size
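Quantitative HTS format: methyltransferase activity on a biotin-tagged H3K9 peptide is measured by AlphaScreen, using a rabbit anti-monomethyl-H3K9 antibody with streptavidin donor and anti-IgG acceptor beads. Final levels are 20 nM enzyme, 500 nM peptide, 20 uM SAM; 2 h RT.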
JMJD2E inh: inhibitors of human JMJD2E histone demethylase; B2RXH2; JMJD2E catalytic domain, FDH-coupled NADH fluorescence (FDH is formaldehyde dehydrogenase); Potency, µM (series often up to 57.1 µM), without a hit: at the highest dose activity change, negative = inhibition, most hits filed as inhibitors; hit rate 1.6% among 230,000; active = well fitted inhibition curve with a large enough effect, not every such curve was filed as active; inconclusive = small, poorly fitted or top-dose-only effect, or another doubt; inactive = no such curve, though single readings can be large or run the other way;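 note: potency is the fitted concentration of half-maximal effect; 0% = wells with enzyme and -100% = buffer wells without enzyme; nearly all actives have a fitted effect of over 50% in size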
ALDH1A1 inh: inhibitors of human aldehyde dehydrogenase 1A1; Potency, µM (doses to about 75.3 µM), without a hit: top-dose activity, negative = inhibition, most hits filed as inhibitors; Purified ALDH1A1, NADH fluorescence, propionaldehyde substrate; hit rate 7.3% among 220,000; active = well fitted inhibition curve with a large enough effect, not every such curve was filed as active; inconclusive = small, poorly fitted or top-dose-only effect, or another doubt; inactive = no such curve, though single readings can be large or run the other way;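 note: potency is the fitted concentration of half-maximal effect; plate controls were no enzyme wells and a reference inhibitor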
miR-21 reporter: raises the signal of a miR-21 reporter | HeLa miR-21 FLuc reporter, luciferase, 48 h | Potency, µM (doses to about 38.3 µM), for the others: at the highest dose reporter change, positive = more light | 340,000 tested, under 10 active | AID 2288; active = well fitted rising curve with a large enough effect; inconclusive = small, poorly fitted or top-dose-only effect; inactive = no such curve, though single readings can be large or run the other way;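 also: % of control where 0% means no effect; miR-21 action dims this reporter so a rising signal means less miR-21 action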
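HeLa miR-21-FLuc reporter line, endogenous miR-21; 2000 cells/well in DMEM/10% FBS; compound titration up to ~40uM final, 48 h, 37 degree Celsius; luciferase detection reagent, 15 min lysis, CCD luminescence.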
Lamin A splicing: modulators of lamin A splicing. Potency, µM (titrated, usually from 46.1 µM), without a hit: at the highest dose ratio change, negative = inhibition, actives largely listed as inhibitors. HeLa LMNA splicing GFP/RFP minigene ratio, 48 h. hit rate 0.01% among 200,000. AID 1487; active = well fitted inhibition curve with a large enough effect in the signal ratio, with a control signal flat, not every such curve was filed as active; inconclusive = small, poorly fitted or top-dose-only effect, or effect the other way, or a change in a side signal; the % refers to the signal ratio; note: potency is the fitted concentration of half-maximal effect; % is set by controls: 0 for no effect and ±100 for the full control effect
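Read-out is the ratio of GFP to DsRed2 object intensity, acquired by 488 nm laser-scanning cytometry on HeLa lamin A-EGFP minigene reporter cells. Compound incubation 48 hrs at 37 °C in Opti-MEM with 2% FBS; DMSO 0.5% final.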
The depositor's hits bear a star; ? = inconclusive; · = no result given; [ ] = remark or other dose. Sampled rows, rich in hits. Any-hit rate of the full collection: about 13%. Unless noted, calls come from the whole dose curve; as a rule, active = well fitted curve in the direction sought with a large enough effect; inconclusive = small, poorly fitted or top-dose-only effect, or another doubt; inactive = no such curve, though single readings can be large; an effect the other way counts as inactive or inconclusive.

Short keys: A = Sfp inh; B = G9a block; C = JMJD2E inh; D = ALDH1A1 inh; E = miR-21 reporter; F = Lamin A splicing
> Oc1ccc(N2CCN(C(=S)NCCc3ccccc3)CC2)cc1
  A = 11µM*; B = 7.1µM*; C = -25%; D = 11µM*; E = -6%; F = ?

> Fc1cccc(CN2CCN(C(=S)NCCc3ccccc3)CC2)c1
  A = 25%; B = -6%; C = 4%; D = ?; E = -21%; F = ?

> Oc1ccccc1N1CCN(C(=S)NCCc2ccccc2)CC1
  A = 45µM*; B = ?; C = -22%; D = -10%; E = -37%; F = ?

> S=C(NCCc1ccccc1)N1CCN(Cc2ccccc2)CC1
  A = ?; B = ?; C = ?; D = 7.9µM*; E = -48%; F = -16%

> COc1ccccc1Cn1ccn(Cc2ccc(C)cc2)c(=O)c1=O
  A = ·; B = ?; C = ·; D = ·; E = 16%; F = ?

> Cc1ccccc1CN1CCC(CNC(=O)C2CCCN(c3ncnc4c3nc3n4CCCCC3)C2)CC1 (stereo not drawn)
  A = 3%; B = 17%; C = ·; D = ·; E = 17%; F = ·

> C(=C\c1nc(-c2ccccc2)oc1Nc1ccc2ccccc2c1)/c1ccccc1
  A = 5%; B = ·; C = ?; D = 12%; E = ·; F = ·

> CC(C)(C)c1cc(C(=O)Nc2cccnc2)cc(C(=O)Nc2cccnc2)c1
  A = 4%; B = ?; C = ·; D = ·; E = 15%; F = ·

> COc1cc(OC)c(NC(=O)c2sc3ncn(CC(=O)N4CCOCC4)c(=O)c3c2C)cc1Cl
  A = 9%; B = ?; C = ·; D = ·; E = -12%; F = ·

> O=[N+]([O-])c1ccccc1S(=O)(=O)N1CCN(Cc2ccccc2)CC1
  A = -3%; B = 79µM*; C = ·; D = ·; E = -2%; F = ·

> CCS(=O)(=O)N1CCN(Cc2ccc([N+](=O)[O-])cc2)CC1
  A = 79µM*; B = ?; C = 3%; D = ?; E = 1%; F = -20%

> CSc1ccc(CN2CCCCCC2)cc1
  A = 10%; B = 11µM*; C = ·; D = ·; E = 0%; F = ·

> O=[N+]([O-])c1ccc(CN2CCCCCC2)cc1
  A = 11%; B = ?; C = ·; D = ·; E = 0%; F = ·

> CSc1ccc(CN2CCN(Cc3ccc([N+](=O)[O-])cc3)CC2)cc1
  A = -8%; B = 32µM*; C = ?; D = -12%; E = 17%; F = ·

> CC(C)(C)C1N=C(c2ccc3ccccc3c2)OC1=O (stereo not drawn)
  A = ·; B = -28%[0.501 µM]; C = ·; D = ·; E = ·; F = ·

> CCN(CC)S(=O)(=O)c1ccc(N2CCN(CCOc3ccc(OC)cc3)CC2)nc1
  A = 3%; B = 14%[59 µM]; C = ·; D = ·; E = 3%; F = ·

> CCS(=O)(=O)N1CCN(Cc2ccncc2)CC1
  A = -28%; B = 14µM*; C = ?; D = -11%; E = 0%; F = 2%

> Cc1cccc(Nc2nnc(-c3ccc(N4CCOCC4)c([N+](=O)[O-])c3)c3ccccc23)c1
  A = -12%; B = 10µM*; C = -15%; D = ?; E = 28%; F = ?

> COC(=O)c1c(C)[nH]c(C(=O)COC(=O)Cn2cc(C(F)(F)F)ccc2=O)c1C
  A = ·; B = -42%; C = ·; D = ·; E = ·; F = ·

> CCOC(=O)N1CCN(CC(=O)c2ccc(O)cc2O)CC1
  A = -7%; B = ?; C = ·; D = ·; E = -1%; F = ·

> COc1ccc(N2CCN(CC(=O)c3ccc(O)cc3O)CC2)cc1
  A = 7%; B = 71µM*; C = ·; D = ·; E = 6%; F = ·

> O=C(CN1CCN(c2ccc(F)cc2)CC1)c1ccc(O)cc1O
  A = -2%; B = 79µM*; C = ·; D = ·; E = 2%; F = ·

> COc1cc(/C=C2\SC(N)=NC2=O)cc(OC)c1
  A = 0%; B = ·; C = ·; D = ·; E = 0%; F = ·

> CN(C)CCNC(=O)c1ccc(-n2c(=O)c(=O)[nH]c3ccccc32)cc1
  A = ·; B = ·; C = ·; D = 15%; E = ·; F = ·

> COc1ccc(S(=O)(=O)N2CCN(C(=O)/C=C/c3ccco3)CC2)cc1
  A = ·; B = 25µM*; C = ·; D = ·; E = ·; F = ·

Entries listed above that bear a hit mark in Sfp inh:
Short keys: A = Sfp inh; B = G9a block; C = JMJD2E inh; D = ALDH1A1 inh; E = miR-21 reporter; F = Lamin A splicing
> Oc1ccc(N2CCN(C(=S)NCCc3ccccc3)CC2)cc1
  A = 11µM*; B = 7.1µM*; C = -25%; D = 11µM*; E = -6%; F = ?

> Oc1ccccc1N1CCN(C(=S)NCCc2ccccc2)CC1
  A = 45µM*; B = ?; C = -22%; D = -10%; E = -37%; F = ?

> CCS(=O)(=O)N1CCN(Cc2ccc([N+](=O)[O-])cc2)CC1
  A = 79µM*; B = ?; C = 3%; D = ?; E = 1%; F = -20%

Next section:
Short keys: A = Sfp inh; B = G9a block; C = JMJD2E inh; D = ALDH1A1 inh; E = miR-21 reporter; F = Lamin A splicing
> CNC(=S)N1CCN(c2cccc(OC)c2)CC1
  A = 9%; B = ·; C = -1%; D = -11%; E = -5%; F = 0%

> COC(=O)/C=C/C(=O)N1CCN(c2ccccc2)CC1
  A = -7%; B = 50µM*; C = -6%; D = ?; E = 9%; F = -7%

> CC(C)C(=O)N1CCC(Cc2ccccc2)CC1
  A = 2%; B = 11%; C = ·; D = ·; E = -2%; F = ·

> COc1cccc(N2CCN(C(=O)/C=C/c3ccco3)CC2)c1
  A = 8.9µM*; B = 28µM*; C = -6%; D = ?; E = -17%; F = 17%[46 µM]

> O=C(/C=C/c1ccco1)N1CCC(Cc2ccccc2)CC1
  A = ?; B = 32µM*; C = -1%; D = 20µM*; E = -49%; F = ?

> COc1ccc(NC(=O)c2cc(C3CC3)nc3c2c(C)nn3-c2ccccc2)c(OC)c1
  A = ·; B = 0%[59 µM]; C = ·; D = ·; E = 2%; F = 14%[46 µM]

> CCS(=O)(=O)NCCc1sc2nc(-c3ccc(OC)cc3)nn2c1C
  A = ·; B = 10%[59 µM]; C = ·; D = ·; E = 6%; F = -7%[46 µM]

> O=C(/C=C/c1ccco1)N1CCN(c2ncccn2)CC1
  A = ?; B = ?; C = -5%; D = 14µM*; E = -43%; F = 4%

> O=C(/C=C/c1c(Cl)cccc1Cl)N1CCN(c2ncccn2)CC1
  A = -16%; B = -33%[12.7 µM]; C = -9%; D = ?; E = -8%; F = -12%

> CCOc1ccc(C(=O)Nc2cccc(C(=O)OCc3cc(=O)n4cc(C)sc4n3)c2)cc1
  A = ·; B = 0%[12.7 µM]; C = ·; D = ·; E = -34%; F = -3%[46 µM]

> Cc1nc(NC(=O)CCc2ccccc2)sc1C
  A = 40µM*; B = 10µM*; C = ·; D = ·; E = -32%; F = ·

> Cc1nc(Nc2ccccc2)sc1C
  A = ?; B = 13µM*; C = -7%; D = 16µM*; E = -29%; F = ·

> O=C(NCCn1ccc2ccccc21)c1ccc(Cl)cc1
  A = ·; B = -4%[59 µM]; C = ·; D = ·; E = -47%; F = ·

> Cc1ccc(NC(=O)c2c(C)oc3ccc(O)c(CN4CCCCCC4)c23)cc1
  A = ·; B = -26%[59 µM]; C = ·; D = ·; E = 22%; F = ·

> C#Cc1ccc([C@@H]2C=C(C(=O)OCC=C)O[C@H](OCc3ccc(CO)cc3)C2)cc1
  A = 8%; B = -23%[59 µM]; C = -7%; D = 13µM*; E = -3%; F = ·

> C=CCOC(=O)C1=C[C@@H](c2cn(C(C)=O)c3ccccc23)C[C@@H](OCCCCO)O1
  A = 1%; B = ?; C = 1%; D = ?; E = -3%; F = ·

> C#Cc1ccc([C@@H]2C=C(C(=O)OCC=C)O[C@H](OCCCCO)C2)cc1
  A = 2%; B = ?; C = 0%; D = 16µM*; E = -3%; F = ·

> CCOC(=O)N1CCC(N2Cc3cccc(C(=O)Nc4cc(F)ccc4F)c3C2=O)CC1
  A = 15%; B = -19%; C = 0%; D = ?; E = 3%; F = 3%

> COCCN1Cc2cccc(C(=O)NCC3CCN(CC(C)C)C3)c2C1=O (stereo not drawn)
  A = -3%; B = ?; C = -28%; D = 0%; E = -4%; F = ·

> CCOC(=O)N1CCC(N2Cc3cccc(C(=O)NCC4CCN(CC(C)C)C4)c3C2=O)CC1 (stereo not drawn)
  A = -17%; B = 50µM*; C = -13%; D = -9%; E = 0%; F = 0%

> CCOC(=O)N1CCC(N2Cc3cccc(C(=O)Nc4ccc(N(CC)CC)cc4C)c3C2=O)CC1
  A = -3%; B = 10µM*; C = ·; D = ·; E = 5%; F = ·

> CCOC(=O)N1CCC(N2Cc3cccc(C(=O)NCc4ccc(OC)cc4)c3C2=O)CC1
  A = 6%; B = -20%; C = 2%; D = 20µM*; E = -1%; F = ?

> Cc1noc(C(=O)N2CCN(c3ccccc3)CC2)c1Cl
  A = -5%; B = ·; C = ·; D = ·; E = 0%; F = ·

> COc1ccc(Oc2c(C(F)(F)F)oc3cc(OCC(=O)O)ccc3c2=O)cc1
  A = 19%; B = 1%; C = ·; D = ·; E = 8%; F = ·

> CCCOc1ccc(-c2nn(-c3ccccc3)cc2/C=C2\SC(N)=NC2=O)cc1C
  A = 1%; B = 24%[59 µM]; C = 7%; D = -7%; E = 1%; F = -7%

> NC1=NC(=O)/C(=C/c2cn(Cc3ccccc3)c3ccccc23)S1
  A = ?; B = 50µM*; C = -1%; D = 1%; E = -81%; F = ?
